From US6796312B2, “Process and apparatus for the removal of toxic components of tobacco smoke and the standardization of the health hazards related to those components” (priority 2001, dated 2004) come the findings set out here.

Sequences of proteins named here, by UniProt entry; tags and fusion partners are left off. Residues count along the entry.
UniProt P05164, 49-745 limits assumed: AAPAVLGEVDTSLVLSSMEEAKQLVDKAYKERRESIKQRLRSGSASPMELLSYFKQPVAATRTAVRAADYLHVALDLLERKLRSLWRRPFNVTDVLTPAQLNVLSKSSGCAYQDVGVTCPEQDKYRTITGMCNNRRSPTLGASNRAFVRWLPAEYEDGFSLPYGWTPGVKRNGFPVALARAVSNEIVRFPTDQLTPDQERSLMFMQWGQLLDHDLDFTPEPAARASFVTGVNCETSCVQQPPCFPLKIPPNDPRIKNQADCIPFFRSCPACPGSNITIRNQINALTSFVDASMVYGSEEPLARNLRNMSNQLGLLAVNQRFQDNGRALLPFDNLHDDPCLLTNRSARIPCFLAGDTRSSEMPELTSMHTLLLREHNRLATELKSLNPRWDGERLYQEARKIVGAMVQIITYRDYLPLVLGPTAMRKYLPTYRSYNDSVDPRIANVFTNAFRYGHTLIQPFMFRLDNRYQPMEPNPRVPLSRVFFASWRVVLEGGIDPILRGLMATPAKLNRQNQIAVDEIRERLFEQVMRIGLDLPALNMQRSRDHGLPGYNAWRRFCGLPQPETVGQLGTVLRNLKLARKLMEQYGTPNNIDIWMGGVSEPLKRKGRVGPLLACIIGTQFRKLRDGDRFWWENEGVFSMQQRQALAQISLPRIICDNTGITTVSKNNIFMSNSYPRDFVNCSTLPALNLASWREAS

SMILES strings stand for the structures.

The target in this experiment is myeloperoxidase (Homo sapiens, UniProt P05164). The experiment in a line: NADH2-NDGA-myeloperoxidase spectrophotometric assay of sputum / oral fluid-cell harvest supernatant extracts. The settings on record: read-out: concentration that produces fifty (50) percent inhibition of myeloperoxidase. It is filed as biochemical.

On to `[N-]=[N+]=[N-]`, for which the IC50 came out at 1600 µM.
